# Laboratory results as given in PubChem BioAssay AID629 (Emory University Molecular Libraries Screening Center, 2007).
# Sequences of proteins named here, by UniProt entry; tags and fusion partners are left off.
# UniProt P03372, whole entry: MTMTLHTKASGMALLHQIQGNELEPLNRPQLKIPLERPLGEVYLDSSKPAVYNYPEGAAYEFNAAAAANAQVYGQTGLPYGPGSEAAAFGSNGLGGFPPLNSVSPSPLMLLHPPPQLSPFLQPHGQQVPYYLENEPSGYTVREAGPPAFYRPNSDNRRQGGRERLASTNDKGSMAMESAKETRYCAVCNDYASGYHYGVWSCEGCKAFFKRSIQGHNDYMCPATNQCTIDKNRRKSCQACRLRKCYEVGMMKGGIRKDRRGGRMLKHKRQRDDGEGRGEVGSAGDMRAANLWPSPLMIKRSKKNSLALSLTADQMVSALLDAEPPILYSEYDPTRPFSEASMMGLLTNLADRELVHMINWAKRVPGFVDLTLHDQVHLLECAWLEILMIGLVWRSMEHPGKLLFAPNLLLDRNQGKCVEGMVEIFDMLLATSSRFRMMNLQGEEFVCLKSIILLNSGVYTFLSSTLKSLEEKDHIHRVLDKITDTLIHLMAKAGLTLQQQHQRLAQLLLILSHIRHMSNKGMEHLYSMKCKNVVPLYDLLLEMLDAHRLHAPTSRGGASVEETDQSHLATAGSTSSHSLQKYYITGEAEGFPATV
# Only a part is listed here, and it is no random draw. The source made the active and inactive calls. No stated cut-off is given here; in the data, active means inhibition above about 50%; inactive means the rest.
# Biological target: Estrogen receptor (Homo sapiens) (UniProt P03372)
# Assay: ERα–SRC-1 coactivator interaction inhibitors, primary screen, biochemical, TR-FRET, ERα LBD, estradiol-bound (AID 629);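 further: 0% = receptor plus peptide control and 100% = peptide only without receptor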
# Settings: TR-FRET ER-alpha LBD / SRC-1 peptide, at 25.6 µM, stronger effect = higher value
row,Compound,inhibition
1,CN(C)CCOC(=O)C(O)(c1ccccc1)C1CCCCC1 (configuration not stated),inactive: -12.4%
2,CCOP(C)(=S)SCC(=O)NC(C)(CC)C(=O)O (configuration not stated),inactive: -0.68%
3,Cc1ccccc1NP(C)(=O)Nc1ccccc1C,inactive: 6.35%
4,CP(=O)(Nc1ccc2c(c1)OCCO2)Oc1ccccc1 (configuration not stated),inactive: 5.36%
5,CP(=O)(Nc1ccccc1F)Oc1ccccc1 (configuration not stated),inactive: -3.08%
6,CP(=O)(Nc1ccccc1)Oc1ccc(F)cc1 (configuration not stated),inactive: -8.4%
7,CCN(CC)CCCOC(=O)C(O)(c1ccccc1)C1CCCCC1 (configuration not stated),inactive: -15.1%
8,COc1ccccc1OP(C)(=O)Nc1ccc(C)c(C)c1 (configuration not stated),inactive: -8.1%
9,Cc1nc2ccc3ccccc3c2o1.O=[N+]([O-])c1cc([N+](=O)[O-])c(O)c([N+](=O)[O-])c1,inactive: 8.41%
10,COc1ccc(OP(C)(=O)Nc2ccccn2)cc1 (configuration not stated),inactive: 6.32%
11,CN(C)CCOC(=O)C(O)(c1ccccc1)C1CCCC1 (configuration not stated),inactive: -0.57%
12,COc1ccccc1OP(C)(=O)Nc1ccc(C)cc1C (configuration not stated),inactive: -1.16%
13,CP(=O)(Nc1ccccn1)Oc1ccccc1 (configuration not stated),inactive: -2.85%
14,CCc1ccc(OP(C)(=O)O)cc1,inactive: 3.68%
15,Cc1c(NP(C)(=O)Oc2ccc(C(C)C)cc2)c(=O)n(-c2ccccc2)n1C (configuration not stated),inactive: -6.45%
16,COc1ccccc1OP(C)(=O)Nc1c(C)n(C)n(-c2ccccc2)c1=O (configuration not stated),inactive: -6.71%

row,Compound,inhibition
1,CP(=O)(Oc1ccccc1)N1CCOC1=O (configuration not stated),inactive: 0.3%
2,CC(C)(C)c1ccc(OP(C)(=O)O)cc1,inactive: -0.07%
3,CP(=O)(Nc1ccc(Cl)cc1)Oc1ccc(F)cc1 (configuration not stated),inactive: 7.77%
4,CP(=O)(OC12CC3CC(CC(C3)C1)C2)OC12CC3CC(CC(C3)C1)C2,inactive: 0.48%
5,CP(=S)(Nn1cnnc1)Oc1ccccc1 (configuration not stated),inactive: -1.21%
6,CP(=O)(NC(=O)Nc1ccccc1)Oc1ccccc1 (configuration not stated),inactive: -3.83%
7,CP(=O)(Nc1ccccn1)Oc1ccc(Cl)cc1 (configuration not stated),inactive: -11%
8,CCOP(C)(=S)SCC(=O)NC(C)C(=O)O (configuration not stated),inactive: -0.05%
9,COc1ccc(OP(C)(=O)Nc2cccc(F)c2)cc1 (configuration not stated),inactive: -4.42%
10,Cc1ccc(NP(C)(=O)Oc2ccccc2)c(C)c1 (configuration not stated),inactive: 5.26%
11,COc1ccccc1OP(C)(=O)Nc1ccc(C)cc1 (configuration not stated),inactive: -3.25%
12,Cc1cc(C)cc(OP(C)(=O)Nc2ccc(C)cc2C)c1 (configuration not stated),inactive: -7.1%
13,Cc1ccc(C)c(NP(C)(=O)Oc2ccccc2)c1 (configuration not stated),inactive: 6.09%
14,Cc1cc(C)cc(OP(C)(=O)Nc2ccccn2)c1 (configuration not stated),inactive: 2.99%
15,Cc1nc2ccc3ccccc3c2s1.O=[N+]([O-])c1cc([N+](=O)[O-])c(O)c([N+](=O)[O-])c1,inactive: 9.04%
16,COc1ccccc1OP(C)(=O)Nc1c(C)cccc1C (configuration not stated),inactive: -9.53%
